Reference: US20060094763A1, “Polymorphic forms of 6-[2-(methylcarbomoyl) phenyl sulfanyl]-3-E-[2-(pyridin-2-yl)ethenyl]indazole” (Agouron Pharmaceuticals, Inc., priority 2004, published 2006)

Assay: Salt screening: solubility of in situ acid salts of Compound 1 in 100 mM acid solutions (HPLC)
Conditions: 100 mM acid solution, excess solid
Description: To ensure that the maximum solubility level was reached, the samples were checked periodically to ensure that excess solid was present. After 8 days 400 μL of the mixture was removed and centrifuged at 14,000 rpm for 5 minutes. 100 μL of the supernatant was then removed, diluted with 900 μL of a 1:1 mixture of acetonitrile/methanol, and then analyzed by HPLC.

## Maleic acid
Stirred 8 days in the dark
  Solubility 8 days: 69 µg/mL
Stirred 14 days in the dark
  Solubility 14 days: 68 µg/mL
